Measurements from article PMC11836371, “Virtual fragment screening for DNA repair inhibitors in vast chemical space” (Nature Communications, 2025).
Values joined by “and” are separate entries in the source; they are usually repeats but may differ in a detail not shown here. Identical values can stand only once.

Amino acid sequences for entries named in this document (tags omitted).
UniProt O15527, whole entry: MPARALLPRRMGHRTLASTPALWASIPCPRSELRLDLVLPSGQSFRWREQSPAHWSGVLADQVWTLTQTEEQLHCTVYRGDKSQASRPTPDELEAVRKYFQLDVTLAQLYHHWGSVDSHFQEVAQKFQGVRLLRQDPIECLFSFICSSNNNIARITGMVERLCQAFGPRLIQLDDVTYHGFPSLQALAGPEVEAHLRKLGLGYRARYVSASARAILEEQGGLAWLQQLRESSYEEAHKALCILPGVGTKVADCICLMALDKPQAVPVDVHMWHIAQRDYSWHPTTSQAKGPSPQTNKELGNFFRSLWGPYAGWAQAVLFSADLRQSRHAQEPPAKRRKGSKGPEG

How the values were obtained:
OGG1-GFP in U2OS cells = molecular target: T1, OGG1-GFP in U2OS cells (Homo sapiens, UniProt O15527); experiment: Laser microirradiation assay (OGG1-GFP recruitment to DNA damage sites); type: cell-based; settings: 10uM TH5487; for relative OGG1-GFP intensity at laser microirradiation site (Figure3E), normalised to time 0: one column per replicate; for OGG1-GFP recruitment, relative intensity normalised to time 0 (Figure3E): individual replicates
T1 construct: expressed in transfected cells

[1] = Caco-2 cell permeability assay; type: in vitro ADME; settings: human, Caco-2, pH 7.4
Method: Prior to the experiment a drug solution of 10 µM was prepared and warmed to 37 °C. The Caco-2 filters were washed with pre-warmed HBSS prior to the experiment, and thereafter the experiment was started by applying the donor solution on the apical or basolateral side. The transport experiments were carried out at pH 7.4 in both the apical and basolateral chamber. The experiments were performed at 37 °C and with a stirring rate of 500 rpm. The receiver compartment was sampled at 15, 30, and 60 min, and at 60 min also a final sample from the donor chamber was taken to calculate the mass balance of the compound. The samples (100 µL) were transferred to a 96-well plate containing 100 µL methanol and Warfarin as IS and was sealed until analyzed by liquid chromatography coupled to triple quadrupole mass spectrometry (LC-MS/MS).

O=C(Nc1ccc(I)cc1)N1CCC(n2c(=O)[nH]c3c(Br)cccc32)CC1 [TH5487]
relative OGG1-GFP intensity at laser microirradiation site (Figure3E), normalised to time 0 (OGG1-GFP in U2OS cells; time 44 s): 1.31 (2×) and 1.34 and 1.29 and 1.22 and 1.38 and 1.3 and 1.42 and 1.18 and 1.24 and 1.39 and 1.32 and 1.26 and 1.4 and 1.43 | relative OGG1-GFP intensity at laser microirradiation site (Figure3E), normalised to time 0 (OGG1-GFP in U2OS cells; time 46 s): 1.33 (2×) and 1.34 (2×) and 1.28 and 1.23 and 1.4 and 1.44 (2×) and 1.2 and 1.25 and 1.38 and 1.24 and 1.32 and 1.39 | relative OGG1-GFP intensity at laser microirradiation site (Figure3E), normalised to time 0 (OGG1-GFP in U2OS cells; time 48 s): 1.34 (2×) and 1.31 and 1.25 (2×) and 1.38 and 1.3 (2×) and 1.44 and 1.21 and 1.4 (2×) and 1.32 and 1.26 and 1.43 | relative OGG1-GFP intensity at laser microirradiation site (Figure3E), normalised to time 0 (OGG1-GFP in U2OS cells; time 50 s): 1.34 and 1.33 (3×) and 1.29 and 1.23 and 1.39 and 1.43 (2×) and 1.2 and 1.24 and 1.38 and 1.27 and 1.3 and 1.41 | relative OGG1-GFP intensity at laser microirradiation site (Figure3E), normalised to time 0 (OGG1-GFP in U2OS cells; time 52 s): 1.33 (4×) and 1.35 and 1.28 and 1.23 and 1.38 and 1.42 and 1.21 and 1.25 and 1.41 and 1.27 and 1.4 and 1.47 | relative OGG1-GFP intensity at laser microirradiation site (Figure3E), normalised to time 0 (OGG1-GFP in U2OS cells; time 54 s): 1.34 (2×) and 1.35 and 1.29 and 1.25 and 1.41 (3×) and 1.2 and 1.24 and 1.39 and 1.32 (2×) and 1.26 and 1.45 | relative OGG1-GFP intensity at laser microirradiation site (Figure3E), normalised to time 0 (OGG1-GFP in U2OS cells; time 56 s): 1.33 (3×) and 1.3 and 1.23 and 1.38 and 1.34 and 1.43 and 1.2 and 1.26 (2×) and 1.39 and 1.31 and 1.4 and 1.44 | relative OGG1-GFP intensity at laser microirradiation site (Figure3E), normalised to time 0 (OGG1-GFP in U2OS cells; time 58 s): 1.33 and 1.34 and 1.3 and 1.23 and 1.39 and 1.31 (3×) and 1.42 and 1.2 and 1.26 and 1.4 and 1.27 and 1.37 and 1.45 | relative OGG1-GFP intensity at laser microirradiation site (Figure3E), normalised to time 0 (OGG1-GFP in U2OS cells; time 60 s): 1.33 (2×) and 1.32 (2×) and 1.24 (2×) and 1.4 (2×) and 1.31 and 1.44 (2×) and 1.19 and 1.26 and 1.3 and 1.39 | relative OGG1-GFP intensity at laser microirradiation site (Figure3E), normalised to time 0 (OGG1-GFP in U2OS cells; time 62 s): 1.33 (2×) and 1.29 and 1.24 and 1.38 and 1.31 and 1.43 (2×) and 1.2 and 1.26 and 1.39 and 1.32 and 1.25 and 1.3 and 1.4 | relative OGG1-GFP intensity at laser microirradiation site (Figure3E), normalised to time 0 (OGG1-GFP in U2OS cells; time 64 s): 1.33 (3×) and 1.29 and 1.24 (2×) and 1.38 and 1.44 and 1.21 and 1.4 and 1.32 (2×) and 1.26 and 1.37 and 1.45 | relative OGG1-GFP intensity at laser microirradiation site (Figure3E), normalised to time 0 (OGG1-GFP in U2OS cells; time 66 s): 1.33 (4×) and 1.3 and 1.25 (3×) and 1.39 (2×) and 1.46 and 1.22 and 1.32 and 1.37 and 1.45 | relative OGG1-GFP intensity at laser microirradiation site (Figure3E), normalised to time 0 (OGG1-GFP in U2OS cells; time 68 s): 1.33 (2×) and 1.34 and 1.29 and 1.24 and 1.37 and 1.31 and 1.43 and 1.2 and 1.25 (2×) and 1.4 and 1.32 and 1.38 and 1.45 | relative OGG1-GFP intensity at laser microirradiation site (Figure3E), normalised to time 0 (OGG1-GFP in U2OS cells; time 70 s): 1.35 and 1.32 (2×) and 1.29 and 1.24 and 1.38 and 1.31 and 1.43 (2×) and 1.2 and 1.25 and 1.39 (2×) and 1.26 and 1.3 | relative OGG1-GFP intensity at laser microirradiation site (Figure3E), normalised to time 0 (OGG1-GFP in U2OS cells; time 72 s): 1.33 and 1.31 and 1.29 and 1.24 and 1.37 and 1.32 (2×) and 1.44 (2×) and 1.21 and 1.25 (2×) and 1.38 and 1.3 and 1.36 | relative OGG1-GFP intensity at laser microirradiation site (Figure3E), normalised to time 0 (OGG1-GFP in U2OS cells; time 74 s): 1.34 and 1.31 (2×) and 1.28 and 1.23 and 1.39 and 1.32 (2×) and 1.43 and 1.2 and 1.25 and 1.4 and 1.24 and 1.37 and 1.46 | relative OGG1-GFP intensity at laser microirradiation site (Figure3E), normalised to time 0 (OGG1-GFP in U2OS cells; time 76 s): 1.34 (2×) and 1.31 and 1.24 (2×) and 1.37 and 1.32 (3×) and 1.41 and 1.2 and 1.25 and 1.39 and 1.38 and 1.47 | relative OGG1-GFP intensity at laser microirradiation site (Figure3E), normalised to time 0 (OGG1-GFP in U2OS cells; time 78 s): 1.34 and 1.31 (3×) and 1.24 (2×) and 1.37 and 1.33 and 1.42 and 1.19 and 1.25 and 1.38 (2×) and 1.3 and 1.44 | relative OGG1-GFP intensity at laser microirradiation site (Figure3E), normalised to time 0 (OGG1-GFP in U2OS cells; time 80 s): 1.33 (2×) and 1.34 and 1.32 (3×) and 1.24 (2×) and 1.37 and 1.4 and 1.21 and 1.25 and 1.38 and 1.36 and 1.43 | relative OGG1-GFP intensity at laser microirradiation site (Figure3E), normalised to time 0 (OGG1-GFP in U2OS cells; time 82 s): 1.33 (2×) and 1.31 (2×) and 1.26 and 1.36 (2×) and 1.42 and 1.19 and 1.24 (2×) and 1.39 and 1.32 (2×) and 1.43 | relative OGG1-GFP intensity at laser microirradiation site (Figure3E), normalised to time 0 (OGG1-GFP in U2OS cells; time 84 s): 1.33 and 1.29 and 1.31 (4×) and 1.24 (2×) and 1.36 (2×) and 1.41 and 1.19 and 1.25 and 1.39 and 1.44 | relative OGG1-GFP intensity at laser microirradiation site (Figure3E), normalised to time 0 (OGG1-GFP in U2OS cells; time 86 s): 1.34 and 1.3 (2×) and 1.32 (2×) and 1.24 (2×) and 1.39 and 1.33 and 1.41 and 1.2 and 1.22 and 1.42 and 1.38 and 1.44 | relative OGG1-GFP intensity at laser microirradiation site (Figure3E), normalised to time 0 (OGG1-GFP in U2OS cells; time 88 s): 1.34 and 1.32 (2×) and 1.31 (3×) and 1.25 and 1.37 and 1.42 (2×) and 1.19 and 1.23 and 1.39 (2×) and 1.24 | relative OGG1-GFP intensity at laser microirradiation site (Figure3E), normalised to time 0 (OGG1-GFP in U2OS cells; time 90 s): 1.34 and 1.32 and 1.31 (3×) and 1.24 (2×) and 1.38 and 1.33 and 1.39 and 1.2 and 1.4 and 1.23 and 1.37 and 1.43 | relative OGG1-GFP intensity at laser microirradiation site (Figure3E), normalised to time 0 (OGG1-GFP in U2OS cells; time 92 s): 1.33 (2×) and 1.29 and 1.31 (2×) and 1.24 and 1.38 and 1.41 and 1.2 and 1.25 and 1.39 and 1.23 and 1.32 and 1.35 and 1.45 | OGG1-GFP recruitment, relative intensity normalised to time 0 (Figure3E) (OGG1-GFP in U2OS cells; time 94 s): 1.34 and 1.31 and 1.32 and 1.24 and 1.37 (2×) and 1.33 (2×) and 1.42 and 1.2 and 1.23 and 1.39 and 1.22 and 1.3 and 1.43 | OGG1-GFP recruitment, relative intensity normalised to time 0 (Figure3E) (OGG1-GFP in U2OS cells; time 96 s): 1.34 and 1.3 (2×) and 1.22 and 1.37 and 1.31 (2×) and 1.42 and 1.18 and 1.23 (2×) and 1.38 and 1.32 and 1.36 and 1.41 | OGG1-GFP recruitment, relative intensity normalised to time 0 (Figure3E) (OGG1-GFP in U2OS cells; time 98 s): 1.32 (4×) and 1.29 and 1.25 and 1.38 (2×) and 1.43 (2×) and 1.19 and 1.23 and 1.21 and 1.31 and 1.36 | OGG1-GFP recruitment, relative intensity normalised to time 0 (Figure3E) (OGG1-GFP in U2OS cells; time 100 s): 1.34 and 1.31 (2×) and 1.33 (2×) and 1.24 and 1.36 and 1.42 and 1.19 and 1.23 (2×) and 1.37 (2×) and 1.32 and 1.43 | OGG1-GFP recruitment, relative intensity normalised to time 0 (Figure3E) (OGG1-GFP in U2OS cells; time 102 s): 1.33 and 1.3 and 1.31 (2×) and 1.24 and 1.37 (2×) and 1.32 (2×) and 1.41 and 1.2 and 1.23 and 1.4 and 1.22 and 1.44 | OGG1-GFP recruitment, relative intensity normalised to time 0 (Figure3E) (OGG1-GFP in U2OS cells; time 104 s): 1.33 and 1.3 (2×) and 1.24 and 1.37 and 1.28 and 1.41 and 1.18 and 1.23 and 1.38 and 1.31 (2×) and 1.21 and 1.36 and 1.42 | OGG1-GFP recruitment, relative intensity normalised to time 0 (Figure3E) (OGG1-GFP in U2OS cells; time 106 s): 1.33 and 1.3 (2×) and 1.31 (2×) and 1.24 and 1.37 and 1.41 (2×) and 1.19 and 1.22 (2×) and 1.38 and 1.32 and 1.35 | OGG1-GFP recruitment, relative intensity normalised to time 0 (Figure3E) (OGG1-GFP in U2OS cells; time 108 s): 1.31 and 1.29 (2×) and 1.3 (2×) and 1.25 and 1.39 and 1.41 (2×) and 1.18 and 1.22 (2×) and 1.38 and 1.32 and 1.37 | OGG1-GFP recruitment, relative intensity normalised to time 0 (Figure3E) (OGG1-GFP in U2OS cells; time 110 s): 1.32 (2×) and 1.3 (2×) and 1.24 (2×) and 1.36 and 1.4 and 1.2 and 1.38 and 1.31 and 1.23 and 1.33 and 1.37 and 1.41 | OGG1-GFP recruitment, relative intensity normalised to time 0 (Figure3E) (OGG1-GFP in U2OS cells; time 112 s): 1.31 (2×) and 1.29 and 1.28 and 1.23 (2×) and 1.36 and 1.39 and 1.19 and 1.4 and 1.3 and 1.22 and 1.32 and 1.37 and 1.42 | OGG1-GFP recruitment, relative intensity normalised to time 0 (Figure3E) (OGG1-GFP in U2OS cells; time 114 s): 1.33 and 1.3 (3×) and 1.32 and 1.25 and 1.36 (2×) and 1.4 (3×) and 1.18 and 1.24 and 1.21 and 1.31 | OGG1-GFP recruitment, relative intensity normalised to time 0 (Figure3E) (OGG1-GFP in U2OS cells; time 116 s): 1.32 and 1.3 (3×) and 1.31 and 1.24 and 1.38 (2×) and 1.39 and 1.18 and 1.22 and 1.21 and 1.33 and 1.36 and 1.42 | OGG1-GFP recruitment, relative intensity normalised to time 0 (Figure3E) (OGG1-GFP in U2OS cells; time 118 s): 1.31 (2×) and 1.3 (2×) and 1.23 and 1.36 and 1.32 (2×) and 1.4 and 1.17 and 1.24 and 1.38 and 1.22 and 1.35 and 1.42 | OGG1-GFP recruitment, relative intensity normalised to time 0 (Figure3E) (OGG1-GFP in U2OS cells; time 120 s): 1.29 (2×) and 1.3 (3×) and 1.22 and 1.36 (2×) and 1.38 (2×) and 1.19 and 1.25 and 1.23 and 1.33 and 1.4 | efflux ratio at 60 min, 10 µM [1]: 1.16
